Reference: patent US4609758A, “Phenoxyethylamine derivatives” (American Home Products Corporation, priority 1985, dated 1986)

Test system: synaptosomal uptake of serotonin (5-HT)
Test: Inhibition of synaptosomal serotonin (14C-5-HT) uptake
Type: biochemical
Settings: synaptosomal uptake of 14C-5-HT, read-out: 5-HT uptake, inhibitory concentration at which the rate of uptake was reduced to 50 percent (IC50)

CNCCC(Oc1ccc(C(F)(F)F)cc1)c1ccccc1 (stereo not shown) [Fluoxetine, reference compound]
IC50: 140 nM
